Test: Efflux ratio of apparent permeability from basolateral to apical side to apical to basolateral side in MDCK2 cells expressing MDR1 at 200 ug/ml by UV-visible spectroscopy
Assay type: ADME, cell-based, Canis lupus familiaris
Conditions: dog, mdck-ii

Molecule CN1C(=O)CN=C(c2ccccc2)c2cc(Cl)ccc21 [DIAZEPAM] has a Ratio of 0.79.
